Reference: ChEMBL document CHEMBL4477246, “New small molecule inhibitors of histone methyl transferase DOT1L with a nitrile as a non-traditional replacement for heavy halogen atoms” (Bioorg Med Chem Lett, 2016)

By UniProt entry, the sequences of proteins in these tests, tags left out. Where a name states a change or a piece, a line headed by the entry shows the natural chain unless it says otherwise.
UniProt Q9H5I1: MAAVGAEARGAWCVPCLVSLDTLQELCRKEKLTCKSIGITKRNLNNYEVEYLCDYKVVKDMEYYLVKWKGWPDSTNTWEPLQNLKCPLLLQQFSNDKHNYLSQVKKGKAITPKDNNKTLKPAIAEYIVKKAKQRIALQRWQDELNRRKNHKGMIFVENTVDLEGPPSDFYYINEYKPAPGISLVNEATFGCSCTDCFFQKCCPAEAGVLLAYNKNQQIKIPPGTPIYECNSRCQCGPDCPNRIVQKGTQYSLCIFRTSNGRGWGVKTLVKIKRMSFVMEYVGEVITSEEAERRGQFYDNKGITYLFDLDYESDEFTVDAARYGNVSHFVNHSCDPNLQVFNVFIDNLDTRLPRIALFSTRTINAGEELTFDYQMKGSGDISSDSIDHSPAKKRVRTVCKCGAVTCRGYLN
UniProt Q15910, whole entry, looked up: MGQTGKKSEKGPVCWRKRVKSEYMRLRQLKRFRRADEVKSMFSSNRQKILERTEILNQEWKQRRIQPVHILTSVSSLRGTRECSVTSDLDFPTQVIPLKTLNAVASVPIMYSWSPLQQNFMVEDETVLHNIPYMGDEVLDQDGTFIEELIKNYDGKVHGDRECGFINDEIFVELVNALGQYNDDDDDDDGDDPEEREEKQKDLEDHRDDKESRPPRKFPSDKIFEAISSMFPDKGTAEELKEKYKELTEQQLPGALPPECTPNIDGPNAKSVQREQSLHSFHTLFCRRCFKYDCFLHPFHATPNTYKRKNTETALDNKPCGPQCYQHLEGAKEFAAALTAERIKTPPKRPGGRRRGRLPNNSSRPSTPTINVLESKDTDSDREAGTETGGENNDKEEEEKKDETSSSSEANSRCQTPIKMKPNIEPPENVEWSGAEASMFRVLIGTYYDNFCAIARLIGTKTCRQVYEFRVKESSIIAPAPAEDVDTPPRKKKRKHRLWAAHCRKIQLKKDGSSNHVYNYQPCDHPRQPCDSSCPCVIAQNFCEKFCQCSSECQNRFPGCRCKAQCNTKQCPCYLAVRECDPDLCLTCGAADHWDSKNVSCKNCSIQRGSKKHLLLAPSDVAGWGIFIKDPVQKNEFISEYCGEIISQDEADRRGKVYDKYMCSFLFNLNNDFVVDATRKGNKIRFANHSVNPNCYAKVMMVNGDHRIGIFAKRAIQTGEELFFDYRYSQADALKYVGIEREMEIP

Legend:
[1] = target: T1, Histone-lysine N-methyltransferase SETD7 (Homo sapiens) (UniProt Q8WTS6); assay: Inhibition of SETD7 (unknown origin) up to 100 uM
T1 sequence (whole entry): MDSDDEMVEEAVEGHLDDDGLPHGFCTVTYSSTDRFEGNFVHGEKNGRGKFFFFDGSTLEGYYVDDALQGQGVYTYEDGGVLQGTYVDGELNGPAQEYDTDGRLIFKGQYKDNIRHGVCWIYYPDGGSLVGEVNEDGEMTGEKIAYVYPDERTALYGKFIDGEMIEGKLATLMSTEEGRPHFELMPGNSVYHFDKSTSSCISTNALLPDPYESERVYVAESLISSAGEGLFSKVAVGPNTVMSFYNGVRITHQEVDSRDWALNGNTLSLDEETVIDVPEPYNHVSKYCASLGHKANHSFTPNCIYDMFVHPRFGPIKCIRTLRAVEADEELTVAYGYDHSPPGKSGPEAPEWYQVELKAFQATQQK

[2] = target: Histone-lysine N-methyltransferase SUV39H2 (Homo sapiens, UniProt Q9H5I1); assay: Inhibition of SUV39H2 (unknown origin) up to 100 uM
[3] = target: Histone-lysine N-methyltransferase EZH2 (Homo sapiens, UniProt Q15910); assay: Inhibition of EZH2 (unknown origin) up to 100 uM

Measured: inhibition

N#Cc1cn([C@@H]2O[C@H](CSCC[C@H](N)C(=O)O)[C@@H](O)[C@H]2O)c2ncnc(N)c12
inactive: all assays above

Calls of active or inactive are those of the source.
